Values quoted from earlier work, collected in article PMC6718736, “Validation of in vitro methods for human cytochrome P450 enzyme induction: Outcome of a multi-laboratory study” (Toxicology in Vitro, 2019).

Test system: CYP
Settings: CYP isoforms induced; ref Abadie et al. (2009), Richert et al. (2010), Preissner et al. (2010), Hoffmann et al. (2014); cited from earlier work

For CO[C@H]1/C=C/O[C@@]2(C)Oc3c(C)c(O)c4c(O)c(c(/C=N/N5CCN(C)CC5)c(O)c4c3C2=O)NC(=O)/C(C)=C\C=C\[C@H](C)[C@H](O)[C@@H](C)[C@@H](O)[C@@H](C)[C@H](OC(C)=O)[C@@H]1C [Rifampicin], the “CYP induction in vitro (human hepatocytes)” value is given as “CYP1A2, CYP2B6, CYP3A4”.
